Common to all, as to conditions: Sprague-Dawley, rat, iv, 1 mg/kg
Data set [1] in a line: in vivo.
Data set [2] is described as follows: in vivo. This is another data set of the same source.
A short description of data set [3]: in vivo. This is another data set of the same source.

Molecules are shown by their SMILES.

As a reminder, the clearance is the volume of plasma or blood freed of the substance per unit of time. Higher therefore signals efficient removal. As usually defined, the half-life is how long it takes for the measured level to halve. For orientation: Vd means a proportionality between amount in the body and measured concentration, not a real space. Lower therefore signals little distribution into tissue. Turning to `C[C@@H](CN1CCC(n2c(=O)[nH]c3cc(Br)ccc32)CC1)NC(=O)[C@H]1C[C@@H]1c1ccccc1`, in data set [1], the clearance worked out at 60.7 mL/min/kg. The half-life in data set [2] was 46.8 min. Further, in data set [3], the Vd was 4.7 L/kg.

(Values after ChEMBL document CHEMBL1250519, “Design, synthesis, and biological evaluation of halogenated N-(2-(4-oxo-1-phenyl-1,3,8-triazaspiro[4.5]decan-8-yl)ethyl)benzamides: discovery of an isoform-selective small molecule phospholipase D2 inhibitor” (J Med Chem, 2010).)
